Data on one compound can be found in ChEMBL document CHEMBL1143143, “The influence of esters and carboxylic acids as the N-substituent of opioids. Part 1: Benzomorphans” (Bioorg Med Chem, 2008).

In this assay the test system is Mus musculus. Description: Antinociceptive activity in sc dosed mouse by hot plate method. The class given is functional.

Turning to `C=CCN1CC[C@]23c4c5ccc(O)c4O[C@H]2[C@@H](O)C=C[C@H]3[C@H]1C5`, the ED50 – broadly, the dose that gives a 50% effect, or the effect in half of the subjects – is 9.9 mg/kg.
